LD90/30 data for one molecule are collected here from patent US9211260B2, “Methods of reducing the effects of exposure to a mustard compound by administering RLIP76” (dated 2015).

The subject of this series is mice. Kind of series: Melphalan dose escalation study in mice. The following applies: dose escalation with three concentrations, regression analysis.

`N[C@@H](Cc1ccc(N(CCCl)CCCl)cc1)C(=O)O` showed an LD90/30 of 25.2 mg/kg.
